Ab-14 heavy chain CDR variants: yeast mating affinities

Target: peptide PDVDLGDISGINAS, taken from heptad repeat 2 (HR2) of SARS-CoV-2 spike.

Ab-14 is the parent antibody, in scFv form: VH, then the linker GGGGSGGGGSGGGGS, then VL. The light chain is unchanged in all variants.
VH: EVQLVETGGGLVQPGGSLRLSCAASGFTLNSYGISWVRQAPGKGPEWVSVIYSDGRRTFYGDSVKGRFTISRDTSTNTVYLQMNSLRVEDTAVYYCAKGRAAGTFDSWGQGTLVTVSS
VL: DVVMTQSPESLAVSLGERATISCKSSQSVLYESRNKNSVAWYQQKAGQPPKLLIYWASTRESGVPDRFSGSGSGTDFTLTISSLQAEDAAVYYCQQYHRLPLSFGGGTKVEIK

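Phage display of a naive human antibody library on the peptide gave the parent. Library AAYL49 holds single substitutions and randomly drawn double and triple substitutions in the CDRs. AlphaSeq pools MATa yeast showing the antibodies with MATalpha yeast showing the peptide. Mating (16 h, 30 °C) was followed by selection of diploids and sequencing of their barcodes. A regression on co-assayed BCL2-family reference pairs converts the normalised counts of each replicate to an apparent Kd. There are three technical replicates.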

Variants are written as CDR1, CDR2 and CDR3 of the heavy chain (limits as in the source). Parent: GFTLNSYGIS, VIYSDGRRTFYGDSVK, GRAAGTFDS. The read-out is the apparent dissociation constant on a log10 scale (nM): the lower, the stronger. Where no diploid with the target was found in that replicate, the entry reads "nd": below detection, most likely a poor binder, though not proof of it.

GFTLDSYGIS | VIYSDLERTFYGDSVK | GRAAGTFDS: nd, 3.90, nd (controls 5 of 9).
GFTYNSYGIS | VIQSDGRRTFYGDSVK | GRAAGTLDS: nd, nd, 4.87 (controls 3 of 9).
GFTLNSWAIS | VIYSDGRRTFYGDSVK | GRAAGAFDS: nd, nd, nd (controls 1 of 9).
GFPLNSYGQS | VIYTDGRRTFYGDSVK | GRAAGTFDS: nd, nd, nd (controls 0 of 9).
GFTLNSYGYS | HIYSDGRRTFYGDSVK | GRAAGTFTS: nd, nd, nd (controls 0 of 9).
GFTLNSYGIS | VIYSHGRRSFYGDSVK | GRALGTFDS: nd, nd, nd (controls 0 of 9).
GFTLNSYGWS | VIYSDGRRTFYGVSVK | GSAAGTFDS: nd, nd, nd (controls 1 of 9).
GFTLNSYGIF | VMYSDGRRNFYGDSVK | GRAAGTFDS: 3.54, 3.31, nd (controls 6 of 9).
MFTLNSYGIS | VIYSDGRRTFYGESVK | GRAARTFDS: nd, nd, nd (controls 0 of 9).
GFTLNSWGIS | VIYSDGCRPFYGDSVK | GRAAGTFDS: nd, nd, nd (controls 0 of 9).
GFTLNSHGIS | VIYSDWRRTFYGDSVK | GRSAGTFDS: nd, nd, nd (controls 1 of 9).
GFTLNSYGIS | VIYSDGRRTFYGTSCK | GRLAGTFDS: 3.49, 2.35, 3.19 (controls 2 of 9).
GFTYNSYGIS | VIYSDGRRTFYGISEK | GRAAGTFDS: nd, 4.25, 4.76 (controls 2 of 9).
GFTLSSYGIS | VIYSDGRRPFYGDSVP | GRAAGTFDS: nd, nd, nd (controls 1 of 9).
GFTLNSYGIS | VIYSDGRRTFYGDSVK | MHAEGTFDS: 0.43, 0.83, 0.68 (controls 0 of 9).
GETLNSYGIS | VIYSDGRRTFYKDSVK | GRAAGTFIS: nd, nd, nd (controls 6 of 9).
GFTLNSYGIP | VEYSDGRRTFYGDSVK | GRAAGTFDS: nd, nd, nd (controls 2 of 9).
FFTLNSYGIS | MPYSDGRRTFYGDSVK | GRAAGTFDS: nd, nd, nd (controls 1 of 9).
GFTLNSYGIS | VIYSDGRRTFYEDSAK | GRAALTFDS: 3.15, 3.33, 2.80 (controls 2 of 9).
GFTLNSTGIS | VIYSDGRRTFYGISVK | GRAAGTFDS: nd, nd, nd (controls 0 of 9).
GFTINSYGIS | VIYSDGRRTFNGDSVK | GRAAGTFDA: 2.58, 3.24, 2.81 (controls 3 of 9).
GFTLNSYGIS | VIYSDGRRTFYGDSVK | GLAANTFDR: nd, nd, nd (controls 0 of 9).
GFTLNSYGIS | VIYEDGRRTFYIDSVK | GRAAGTFCS: 4.49, nd, nd (controls 3 of 9).
GFTTNSYGIS | VIEQDGRRTFYGDSVK | GRAAGTFDS: nd, 3.51, nd (controls 0 of 9).
GFTLNSYGIS | VIYSDGRRTFYGDSVK | GRAAGTPPS: 0.62, 1.10, 0.77 (controls 4 of 9).
GSTLNSYGIS | HIYSDGRRTFYGDSVK | GRAAGTFQS: nd, nd, 4.15 (controls 3 of 9).
GDTLNSYGIS | VIYSDGRYTFYGDSVK | GRAAGRFDS: nd, 4.89, 2.89 (controls 1 of 9).
GFTLNTYDIS | VIISDGRRTFYGDSVK | GRAAGTFDS: 3.45, nd, 4.08 (controls 1 of 9).
GFTLNSYGIS | VIYSDGRRTFYGDIVK | GRAQDTFDS: 3.97, nd, nd (controls 0 of 9).
KFTANSYAIS | VIYSDGRRTFYGDSVK | GRAAGTFDS: nd, 4.17, nd (controls 3 of 9).
DFTLNSYGIS | VIYSDGRRTFYGCSCK | GRAAGTFDS: nd, nd, 5.03 (controls 0 of 9).
GFTLNSYGIS | VIYSDGRRTFYGDRAK | GRAAGPFDS: 4.25, 4.80, nd (controls 5 of 9).
GFFLNSYGIS | VISSDGRRTFYGDSVK | GRAMGTFDS: nd, 4.97, 4.63 (controls 2 of 9).
GFTLNSYGIS | VIYSDGRRTFYPDPDK | GRAAGTFDS: nd, 3.96, nd (controls 0 of 9).
GFTLNEYGIS | VIYSDGRRTVYGDSVK | GRAAGTKDS: 1.11, 1.53, 1.35 (controls 7 of 9).
GFTLNSYGIS | VIYSDGRRVFNGYSVK | GRAAGTFDS: nd, nd, nd (controls 1 of 9).
GFTFNSYGIS | VIYSDGRRTFYGDSMK | GRAAGTFDS: 3.88, 3.82, nd (controls 0 of 9).

The first 3 variants above that were never detected:

{"CDR-H1": "GFTLNSWAIS", "CDR-H2": "VIYSDGRRTFYGDSVK", "CDR-H3": "GRAAGAFDS", "log10 Kd (nM) by replicate": "nd, nd, nd", "signal with controls": "1 of 9"}
{"CDR-H1": "GFPLNSYGQS", "CDR-H2": "VIYTDGRRTFYGDSVK", "CDR-H3": "GRAAGTFDS", "log10 Kd (nM) by replicate": "nd, nd, nd", "signal with controls": "0 of 9"}
{"CDR-H1": "GFTLNSYGYS", "CDR-H2": "HIYSDGRRTFYGDSVK", "CDR-H3": "GRAAGTFTS", "log10 Kd (nM) by replicate": "nd, nd, nd", "signal with controls": "0 of 9"}

In this assay the parent's reference entry averaged 0.65; its copy inside this library read 4.11 (one replicate of three). Empty control strains, which show no peptide, gave a signal in 15% of pairings with library AAYL49; the median was 4.06 and 95% of these signals were weaker than 2.83. No background was subtracted. For each scFv, signals with the empty controls are counted beside the result.

The measurements come from Engelhart et al. 2022 (doi:10.1038/s41597-022-01779-4) through the FLAb antibody collection.